Laboratory results: patent US20050289662A1, “Reporter system for plants” (published 2005)

Test system: GSH1-LUC-E9 construct in the BrC line
Test: GSH1 promoter induction in leaves of GSH1-LUC-E9 plants, imaging with N2 cooled CCD camera
Settings: leaves of (t2) plants treated for 30 min with 100 μM, H2O as control

## cadmium
  induction of the GSH1 promoter (LUC imaging): induction of the promoter

## cupper
  induction of the GSH1 promoter (LUC imaging): induction of the promoter
